Measurements from publication PMC9158284, “N-terminally truncated Aβ4-x proteoforms and their relevance for Alzheimer’s pathophysiology” (Translational Neurodegeneration, 2022).

Key:
[1] = Thioflavin T binding assay; type: physicochemical; details: after 24-h incubation at 37 °C under physiological salt concentrations; 50 mM Tris–HCl pH 8.5; ex 435 / em 490 nm; three independent experiments
Method: Aggregation of the different Aβ homologues was also monitored by Thioflavin T binding, following previously described protocols. Briefly, 6 μl aliquots from each peptide aggregation time point were added to 184 μl of 50 mM Tris–HCl buffer, pH 8.5, and 10 µl of 0.1 mM thioflavin T (Sigma). Fluorescence was recorded for 300 s in an LS-50B spectrometer (Perkin Elmer, Waltham, MA) with a slit width of 10 nm and excitation and emission wavelengths of 435 and 490 nm, respectively.

[2] = after 24-h incubation at 37 °C, 50 μM in 10 mM phosphate buffer pH 7.4, 150 mM NaF; mean of 15 scans
[3] = Electron microscopy after negative staining; type: physicochemical; details: 24-h incubation/oligomerization
Description: Peptide oligomerization was also monitored by electron microscopy, as previously described. Five microliters of either monomeric or oligomeric preparations of the different Aβ peptides were placed onto carbon-coated 400 mesh Cu/Rh grids (Ted Pella, Inc., Redding, CA) and stained with 1% uranyl acetate in distilled water (Polysciences, Inc., Warrington, PA). The stained grids were examined in a Philips CM-12 transmission electron microscope and photographed with a Gatan (4 k × 2.7 k) digital camera at the Image Core Facility of the Skirball Institute of Biomedical Medicine, NYU School of Medicine, as described.

[4] = parameters: species or system C57BL/6 mice; details: mouse, in vivo
Method: One hundred micrograms of either full-length or truncated Aβ species in both monomeric and oligomeric forms were radiolabeled using 1,3,4,6-tetrachloro-3α-6α-diphenylglycoluril pre-coated tubes (Iodogen, ThermoFisher Scientific/Pierce, Waltham, MA) and Na^125I (1 mCi, PerkinElmer, Waltham, MA), following the manufacturer’s specifications. All radiolabeling procedures were carried out for 20 min in a Standalone Radioiodine IH-350 hood (Atlantic Nuclear, Rockland, MA). Following removal of free Iodine using a desalting polyacrylamide column (D-salt, cut off 1.8 kDa, Pierce), radioactivity of labeled Aβ was assessed in a Perkin Elmer 1470 automated gamma counter (Perkin Elmer, Waltham, MA). Under these experimental conditions, [^125I] incorporation rendered specific activities in the range of 3–5 µCi/µg with > 98% TCA precipitable counts. […]
C57BL/6 mice (Taconic Biosciences, Hudson, NY) were intracerebrally injected with the different Aβ preparations following institutionally approved IACUC protocols, essentially as previously reported by our laboratory. […] Radioactivity remaining in the whole brain was assessed in the Perkin Elmer 1470 γ-counter.

[5] = Autoradiography after SDS-polyacrylamide gel electrophoresis of [125I]-labeled Aβ preparations; type: physicochemical; details: [125I]-labeled 24-h incubated preparations, 16.5% SDS–polyacrylamide gel
Method: One hundred micrograms of either full-length or truncated Aβ species in both monomeric and oligomeric forms were radiolabeled using 1,3,4,6-tetrachloro-3α-6α-diphenylglycoluril pre-coated tubes (Iodogen, ThermoFisher Scientific/Pierce, Waltham, MA) and Na^125I (1 mCi, PerkinElmer, Waltham, MA), following the manufacturer’s specifications. All radiolabeling procedures were carried out for 20 min in a Standalone Radioiodine IH-350 hood (Atlantic Nuclear, Rockland, MA). Following removal of free Iodine using a desalting polyacrylamide column (D-salt, cut off 1.8 kDa, Pierce), radioactivity of labeled Aβ was assessed in a Perkin Elmer 1470 automated gamma counter (Perkin Elmer, Waltham, MA). Under these experimental conditions, [^125I] incorporation rendered specific activities in the range of 3–5 µCi/µg with > 98% TCA precipitable counts. Aggregation status of the [^125I]-labeled Aβ monomeric and oligomeric species was analyzed by autoradiography following 16.5% SDS–polyacrylamide gel electrophoresis and subsequent direct exposure to HyBlot CL film (Denville Scientific Inc., South Plainfield, NJ), as we previously described. If not immediately used for the clearance experiments, [^125I]Aβ oligomeric peptides were stored at -80 °C and used within a week to prevent further oligomerization and minimize radiolysis.

## Aβ4-42: Synthetic homologue of Aβ1-42 N-terminally truncated at Phe4
[1]
  Thioflavin T binding (fluorescence) of oligomerized peptides: highest thioflavin T binding
[2]
  Secondary structure by CD upon oligomerization: dominant conformation
[3]
  Protofibrillar assemblies after the aggregation procedure, length (electron microscopy): ≤ 150 nm
[4]
  Brain clearance, percentage cleared relative to the total injected radioactivity, oligomeric (24-h incubated) preparation: 43% ± 3%
[5]
  SDS-resistant oligomeric species of 24-h incubated preparations: from tetramers to dodecamers
